The values that follow are results of earlier work, collected in publication PMC2885539 (Archives of biochemistry and biophysics, 2010).

For this series the following is noted: ions, ref [16]; cited from earlier work.

As to SO4^2−, the “effect of static compression on diffusivity” value is “reduced the diffusivities”.
